Values quoted from earlier work in patent US20240024490A1.

Protein sequences, listed by entry. Tags and fused reporters are not part of them.
UniProt O14965, whole entry: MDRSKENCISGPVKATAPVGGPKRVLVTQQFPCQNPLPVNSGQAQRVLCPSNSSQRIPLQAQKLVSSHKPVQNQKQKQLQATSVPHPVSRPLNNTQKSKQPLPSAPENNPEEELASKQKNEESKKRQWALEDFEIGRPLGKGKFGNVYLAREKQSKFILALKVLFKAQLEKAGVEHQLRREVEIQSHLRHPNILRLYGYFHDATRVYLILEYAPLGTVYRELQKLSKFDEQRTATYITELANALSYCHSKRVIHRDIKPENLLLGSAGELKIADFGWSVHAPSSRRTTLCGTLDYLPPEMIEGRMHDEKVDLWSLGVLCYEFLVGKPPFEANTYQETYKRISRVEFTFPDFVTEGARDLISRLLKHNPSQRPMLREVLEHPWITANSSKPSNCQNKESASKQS
UniProt P31749, whole entry: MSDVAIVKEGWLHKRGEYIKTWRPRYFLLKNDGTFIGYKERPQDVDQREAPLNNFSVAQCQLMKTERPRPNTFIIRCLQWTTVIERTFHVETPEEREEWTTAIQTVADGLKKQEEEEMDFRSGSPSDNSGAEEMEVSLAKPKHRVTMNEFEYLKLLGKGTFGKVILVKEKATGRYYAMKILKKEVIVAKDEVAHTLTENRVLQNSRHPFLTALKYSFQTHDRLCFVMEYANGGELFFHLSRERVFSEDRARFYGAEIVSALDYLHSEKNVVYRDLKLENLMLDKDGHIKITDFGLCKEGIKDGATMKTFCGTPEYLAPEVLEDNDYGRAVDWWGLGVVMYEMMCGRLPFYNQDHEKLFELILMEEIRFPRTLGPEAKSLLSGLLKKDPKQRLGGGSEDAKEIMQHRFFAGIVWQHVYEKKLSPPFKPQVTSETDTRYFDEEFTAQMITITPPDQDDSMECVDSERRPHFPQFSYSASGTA
UniProt O15530, whole entry: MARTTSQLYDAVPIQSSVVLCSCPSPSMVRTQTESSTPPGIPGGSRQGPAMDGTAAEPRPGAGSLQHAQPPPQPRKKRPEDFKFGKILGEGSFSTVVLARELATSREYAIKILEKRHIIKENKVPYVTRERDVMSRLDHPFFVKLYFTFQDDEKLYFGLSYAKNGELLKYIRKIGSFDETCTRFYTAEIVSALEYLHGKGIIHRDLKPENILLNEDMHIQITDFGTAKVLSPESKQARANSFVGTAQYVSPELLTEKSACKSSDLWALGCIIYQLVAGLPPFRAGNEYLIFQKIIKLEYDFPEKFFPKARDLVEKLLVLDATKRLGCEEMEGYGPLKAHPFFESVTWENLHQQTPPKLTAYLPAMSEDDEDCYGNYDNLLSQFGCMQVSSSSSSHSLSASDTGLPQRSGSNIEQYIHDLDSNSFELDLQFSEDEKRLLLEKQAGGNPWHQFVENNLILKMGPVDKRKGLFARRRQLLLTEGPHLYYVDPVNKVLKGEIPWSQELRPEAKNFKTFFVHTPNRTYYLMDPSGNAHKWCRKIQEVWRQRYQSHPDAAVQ

Assays:
Aurora A = Aurora A (Homo sapiens, UniProt O14965); conditions: cited from earlier work
AKT1 = AKT1 (Homo sapiens, UniProt P31749); conditions: read-out: Akt1 IC50; cited from earlier work
PDK1 = PDK1 (Homo sapiens, UniProt O15530); conditions: cited from earlier work

Structure (SMILES) | IC50 (Aurora A; read-out: Average IC50) [µM] | Ki (Aurora A; read-out: Calculated Ki) [µM] | IC50 (AKT1) [µM] | AC50 (PDK1) [n.e.]
O=C(O)c1cc(-c2cccc(F)c2)nc2ccc(Br)cc12 | > 500 | > 100 |  | 
O=C(O)/C=C(\CCc1cccc(Cl)c1)c1ccccc1 |  |  | > 300 | 9.5
